Source: PubChem BioAssay AID1656 (Sanford-Burnham Center for Chemical Genomics, 2009)
This is a selection; strong and weak results do not stand in their true shares. Active and inactive are the calls of the source.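 The calls were made as follows: active = lipid droplet intensity inhibited by at least 50%, with more than 500 cells counted; inconclusive = wells with under 300 cells, treated as cytotoxic; inactive = the rest.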

Experiment: inhibitors of hepatocyte lipid droplet formation, primary screen, imaging, high-throughput imaging, BODIPY stain (AID 1656)
Details: AML12 mouse hepatocytes, oleate lipid droplets, at 6.5 µM, active compounds read high
Procedure, shortened: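 Test system: AML12 mouse liver cells; schedule: overnight exposure; technique: high-content imaging of BODIPY-stained droplets and DAPI nuclei; read-out: % inhibition of corrected integrated BODIPY droplet signal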

Row | Compound | inhibition
1 | CCCOc1ccc(C)cc1CN(CCCl)CCCl | inactive: -8.4%
2 | CN1CCC(Nc2ccc(Cl)cc2)CC1 | inactive: -0.1%
3 | COc1cc(OC)cc(C(=O)NCC2(N3CCOCC3)CCCCC2)c1 | inactive: -23.9%
4 | COc1cccc(C(=O)N(c2cc(C)cc(C)c2)C2CCN(C(=O)OC(C)(C)C)CC2)c1 | inactive: 8.3%
5 | CCCOc1ccc(C(=O)NCC2(N(C)C)CCCCC2)cc1 | inactive: -37.4%
6 | CC(C)(C)OC(=O)N1CCC(Nc2ccccc2)CC1 | inactive: 14%
7 | CN1CCC(Nc2ccc(F)c(Cl)c2)CC1 | inactive: -0.5%
8 | CCOc1ncccc1C(=O)NCC1(N2CCOCC2)CCCCC1 | inactive: -8.3%
9 | CN(C)c1ccc(C(=O)NCC2(N3CCCCC3)CCCCC2)cc1 | inactive: 3%
10 | CCN1CCC(Nc2cccc(F)c2)CC1 | inactive: 6.8%
11 | COc1cc(OC)cc(C(=O)NCC2(N3CCCCC3)CCCCC2)c1 | inactive: -13.5%
12 | CCCN1CCC(Nc2cc(OC)cc(OC)c2)CC1 | inactive: 0.2%
13 | c1ccc(CN2CCC(Nc3ccccc3)CC2)cc1 | inactive: -13.3%
14 | CC(C)(C)OC(=O)N1CCC(N(C(=O)c2ccccc2)c2ccc(Cl)cc2)CC1 | inactive: -15.2%
15 | N#Cc1ccc(C(=O)NCC2(N3CCCCC3)CCCCC2)cc1 | inactive: -7.5%
16 | O=C(OC1CN2CCC1CC2)C1c2ccccc2C=Cc2ccccc21 (stereo not drawn) | inactive: -4.1%
17 | CCOC(=O)N1CCC(Nc2ccc(C)cc2)CC1 | inactive: -0.2%
18 | COc1ccc(C(=O)NCC2(N3CCOCC3)CCCCC2)cc1OC | inactive: -11.9%
19 | COc1cc(OC)c(C(=O)NCC2(N(C)C)CCCCC2)cc1OC | inactive: 3.4%
20 | CN(C)c1cccc(C(=O)NCC2(N3CCCCC3)CCCCC2)c1 | inactive: 4.7%
21 | COc1ccc(CN(CCCl)CCCl)cc1Cl | inactive: -7.5%
22 | CC(C)c1ccc(NC2CCN(C(=O)OC(C)(C)C)CC2)cc1 | inactive: -10%

Row | Compound | inhibition
23 | CN1CCN(CCOC(=O)C(O)(c2ccccc2)c2ccccc2)CC1 | inactive: -3.7%
24 | COc1ccc(NC2CCN(C(=O)OC(C)(C)C)CC2)cc1 | inactive: 6.3%
25 | COc1cc(C(=O)NCC2(N3CCCCC3)CCCCC2)ccc1OC(F)F | inactive: -51.9%
26 | O=C(NCC1(N2CCOCC2)CCCCC1)c1cc(=O)[nH]c2ccccc12 | inactive: 14.9%
27 | O=C(NCC1(N2CCCCC2)CCCCC1)c1cccc(C(F)(F)F)c1 | inactive: -4.9%
28 | O=C(NCC1(N2CCCCC2)CCCCC1)c1cccc([N+](=O)[O-])c1 | inactive: 13.9%
29 | CCN1CCC(Nc2ccc(Cl)cc2)CC1 | inactive: -2.2%
30 | O=C(NCC1(N2CCCCC2)CCCCC1)c1ccc(OC(F)F)cc1 | inactive: 2.5%
31 | Cc1ccc(OCC(C)C)c(CN(CCCl)CCCl)c1 | inactive: 0.8%
32 | CCOC(=O)N1CCC(Nc2cccc(C)c2)CC1 | inactive: -0.2%
33 | CCOC(=O)N1CCC(Nc2ccc(F)cc2)CC1 | inactive: 6.4%
34 | O=C(NCC1(N2CCCCC2)CCCCC1)c1ccc(F)cc1 | inactive: -23.9%
35 | CCOc1ccc(C)cc1CN(CCCl)CCCl | inactive: -24.2%
36 | CCOC(=O)N1CCC(Nc2ccc(OC)cc2)CC1 | inactive: 20.4%
37 | N#CC1(Nc2ccccc2)CCN(Cc2ccccc2)CC1 | inactive: -3.3%
38 | O=C(NCC1(N2CCOCC2)CCCCC1)c1cc2ccccc2o1 | inactive: -4%
39 | CSc1ccccc1C(=O)NCC1(N2CCCCC2)CCCCC1 | inactive: 11.1%
40 | O=C(NCC1(N2CCCCC2)CCCCC1)c1ccc(=O)[nH]c1 | inactive: 7%
41 | CC(C)(C)OC(=O)N1CCC(N(C(=O)c2ccccc2)c2ccc(F)cc2)CC1 | inactive: 21.9%
42 | COc1ccc(C(=O)NCC2(N3CCCCC3)CCCCC2)c(OC)c1OC | inactive: 9.5%
43 | COc1ccc(C(=O)NCC2(N3CCCCC3)CCCCC2)cc1 | inactive: -13.5%
